Assay results from US12692265B2, “Solid state forms of Ensifentrine and process for preparation thereof” (ASSIA CHEMICAL INDUSTRIES LTD., priority 2021, dated 2026).

Assays:
Assay type in all cases: physicochemical
[1] = Storage stability at different relative humidities, ambient temperature, 7 days (XRPD); conditions: for at least 7 days
Experimental: (§1) X-ray diffraction was performed on X-Ray powder diffractometer: • Bruker D8 Advance; CuKα radiation (λ=1.5418 Å); Lynx eye detector; laboratory temperature 22-25° C.; PMMA specimen holder ring with silicon low background. Prior to analysis, the samples were gently ground by means of mortar and pestle in order to obtain a fine powder. The ground sample was adjusted into a cavity of the sample holder and the surface of the sample was smoothed by means of a cover glass. Measurement Parameters: • Scan range: 2-40 degrees 2-theta; • Scan mode: continuous; • Step size: 0.05 degrees; • Time per step: 0.5 s; • Sample spin: 30 rpm; • Sample holder: PMMA specimen holder ring with silicon low background.
Samples of Ensifentrine ethane-1,2-disulfonate form ES2 were subjected to conditions of different relative humidities at ambient temperature. XRPD analysis was performed on the samples after 7 days.

[2] = Storage stability at different relative humidities and temperatures, 6 months (XRPD); conditions: for at least 6 months
Experimental: as §1
Samples of Ensifentrine ethane-1,2-disulfonate form ES2 were subjected to conditions of different relative humidities at different temperatures. XRPD analysis was performed on the samples after 6 months.

[3] = Thermal stability (heating, XRPD); conditions: Heating 100° C., 30 minutes
Experimental: as §1
A sample of Ensifentrine ethane-1,2-disulfonate form ES2 was subjected to heating up to 100° C. for 30 minutes. XRPD analysis of the sample confirmed no change in the starting material (Table 4): […]

## Ensifentrine ethane-1,2-disulfonate
[1]
  Stability after exposure to high and low relative humidity: stable
[2]
  Stability after exposure to high and low relative humidity at different temperatures: stable
[3]
  Result (thermal stability): Stable
